Assay: Determination of the solubility of ipratropium bromide in ethanol / HFA 134a (visual appearance, polarized light)
Format: physicochemical
Details: 20.1 mg drug, storage at 4.0°C

CC(C)[N+]1(C)[C@@H]2CC[C@H]1CC(OC(=O)C(CO)c1ccccc1)C2.[Br-] (some centres unmarked) [ipratropium bromide]
Visual appearance (crystallisation) (ethanol levels 14.7, 15.0, 16.8, 17.2, 17.5, 17.9 % by weight in HFA 134a): crystallise
Visual appearance (crystallisation) (ethanol levels 18.9 to 40.1 % by weight in HFA 134a): not to crystallise
